In patent EP2027772A1, “Skin-friendly insect repellent” (Beiersdorf AG, priority 2007, dated 2009) one finds Log P-Wert data, which are given here for one substance.

A short description of this data set: Octanol/water partition coefficient (log P), shake-flask with UV spectroscopy; alternatively calculated by Hansch and Leo. The conditions noted are these: n-Octanol/Wasser.

On to 1,2,3, Propantriol, for which the Log P-Wert was -2.3.
